System: MKN-45
Assay: Cell viability / antiproliferative assay (WST-8), MKN-45;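 also: MKN-45 is a human gastric cancer line overexpressing c-MET, growth inhibition read as WST-8 formazan absorbance at 450 nm after 2 h dye incubation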
Settings: Homo sapiens, MKN-45, 72 h, read-out: MKN-45 IC50

SMILES: Cc1nn(C2CCC(=O)NC2=O)c(=O)c2cc(N3CCC(C(=O)NCCCNC(=O)CN4CCC(COc5cnc(-c6cccc(Cn7nc(-c8cccc(C#N)c8)ccc7=O)c6)nc5)CC4)CC3)ccc12 (stereo not shown) [ICT-0001238]
- IC50: < 100 nM

Source: patent EP4624466A1, “DEGRADER FOR DECOMPOSING CMET PROTEIN, AND PHARMACEUTICAL COMPOSITION COMPRISING SAME” (Innocure Therapeutics, Inc., priority 2022, dated 2024)
